Consider 27 compounds from patent publication US12576087B2, “Aryloxypiperidine pyrazole compounds as indoleamine 2,3-dioxygenase inhibitors” (Merck Sharp & Dohme LLC, priority 2018, dated 2026).

Amino acid sequences for entries named in this document (tags omitted).
UniProt P14902, whole entry: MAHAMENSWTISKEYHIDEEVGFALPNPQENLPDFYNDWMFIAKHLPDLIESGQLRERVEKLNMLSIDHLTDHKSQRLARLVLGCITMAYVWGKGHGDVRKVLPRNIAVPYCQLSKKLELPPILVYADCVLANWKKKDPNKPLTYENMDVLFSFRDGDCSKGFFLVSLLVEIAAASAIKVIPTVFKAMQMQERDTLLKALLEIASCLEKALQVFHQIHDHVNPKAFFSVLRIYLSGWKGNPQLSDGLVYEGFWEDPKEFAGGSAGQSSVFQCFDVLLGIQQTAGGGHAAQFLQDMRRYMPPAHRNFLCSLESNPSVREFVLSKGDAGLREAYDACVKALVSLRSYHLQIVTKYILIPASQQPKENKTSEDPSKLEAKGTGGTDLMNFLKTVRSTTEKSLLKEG

The target in this assay is IDO1 (Homo sapiens, UniProt P14902). The assay can be described thus: IDO1 Cellular Assay in HeLa Cells Stimulated with IFNγ. The assay is classed as cell-based. Conditions: HeLa cells stimulated with IFNγ 100 ng/mL, about 48 hours.

One may read the EC50 as the midpoint of the concentration-response curve. Lower therefore signals a more potent agent. As to `Cc1ccccc1OC1CCN(C(=O)Cn2nc(C(=O)N3CCC(OCCO)CC3)c3c2CCCC3)CC1` [Example 20, 2-(3-(4-(2-hydroxyethoxy)piperidine-1-carbonyl)-4,5,6,7-tetrahydro-1H-indazol-1-yl)-1-(4-(o-tolyloxy)piperidin-1-yl)ethanone], the EC50 worked out at 1.75 nM.
In turn, `C[C@@H]1C[C@H](Oc2ncccc2C(F)(F)F)CCN1C(=O)Cn1nc(C(=O)N2CCN(C(=O)CO)CC2)c2c1C[C@H]1C[C@@H]21` [Example 12, 2-hydroxy-1-(4-((3bR,4aR)-1-(2-((2R,4R)-2-methyl-4-((3-(trifluoromethyl)pyridin-2-yl)oxy)piperidin-1-yl)-2-oxoethyl)-3b,4,4a,5-tetrahydro-1H-cyclopropa[3,4]cyclopenta[1,2-c]pyrazole-3-carbonyl)piperazin-1-yl)ethanone] had an EC50 of 18.5 nM.
For `Cc1cc(F)ccc1OC1CCN(C(=O)Cn2nc(C(=O)N3CCO[C@@H](CO)C3)c3c2CCC3)CC1` [Example 89, 1-[4-(4-fluoro-2-methyl-phenoxy)-1-piperidyl]-2-[3-[(2R)-2-(hydroxymethyl)morpholine-4-carbonyl]-5,6-dihydro-4H-cyclopenta[c]pyrazol-1-yl]ethanone], a half-maximal effect (EC50) was put at 64.6 nM.
The result for `Cc1cc(F)ccc1OC1CCN(C(=O)Cn2nc(C(=O)N3CC[C@H](O)[C@H](F)C3)c3c2CCCC3)CC1` (racemic) [Example 77, 1-[4-(4-fluoro-2-methyl-phenoxy)-1-piperidyl]-2-[3-[rac-(3R,4S)-3-fluoro-4-hydroxy-piperidine-1-carbonyl]-4,5,6,7-tetrahydroindazol-1-yl]ethanone] reads 8.2 nM.
Regarding `Cc1cc(OC2CCN(C(=O)Cn3nc(C(=O)N4C[C@@H](C)O[C@@H](C)C4)c4c3CCC4)CC2)ccc1Cl` [Example 141, 1-[4-(4-chloro-3-methylphenoxy)piperidin-1-yl]-2-{3-[(2R,6S)-2,6-dimethylmorpholine-4-carbonyl]-5,6-dihydrocyclopenta[c]pyrazol-1(4H)-yl}ethan-1-one], the EC50 came to 11.7 nM.
`CC(=O)NC1CCN(C(=O)c2nn(CC(=O)N3CCC(Oc4ccccc4C)CC3)c3c2CCCC3)CC1` [Example 24, N-(1-(1-(2-oxo-2-(4-(o-tolyloxy)piperidin-1-yl)ethyl)-4,5,6,7-tetrahydro-1H-indazole-3-carbonyl)piperidin-4-yl)acetamide]: the EC50 is 1.91 nM.
In the case of `COc1ccc(CC2CCN(C(=O)Cn3nc(C(=O)N4C[C@@H](C)O[C@@H](C)C4)c4c3CCC4)CC2)cc1F` [Example 123, 2-{3-[(2R,6S)-2,6-dimethylmorpholine-4-carbonyl]-5,6-dihydrocyclopenta[c]pyrazol-1(4H)-yl}-1-{4-[(3-fluoro-4-methoxyphenyl)methyl]piperidin-1-yl}ethan-1-one], the EC50 was 324 nM.
For `Cc1cc(F)ccc1OC1CCN(C(=O)Cn2nc(C(=O)N3CCO[C@H](CO)C3)c3c2CCC3)CC1` [Example 87, 1-[4-(4-fluoro-2-methyl-phenoxy)-1-piperidyl]-2-[3-[(2S)-2-(hydroxymethyl)morpholine-4-carbonyl]-5,6-dihydro-4H-cyclopenta[c]pyrazol-1-yl]ethanone], the EC50 came out at 52.9 nM.
`C[C@@H]1CN(C(=O)c2nn(CC(=O)N3CCC(Oc4cc(F)ccc4Cl)CC3)c3c2CCC3)C[C@H](C)O1` [Example 133, 1-[4-(2-chloro-5-fluorophenoxy)piperidin-1-yl]-2-{3-[(2R,6S)-2,6-dimethylmorpholine-4-carbonyl]-5,6-dihydrocyclopenta[c]pyrazol-1(4H)-yl}ethan-1-one] yielded an EC50 of 5.4 nM.
Compound `Cc1ccccc1OC1CCN(C(=O)Cn2nc(C(=O)N3C[C@@H](C)O[C@@H](C)C3)c3c2CCC3)CC1` [Example 116, 2-{3-[(2R,6S)-2,6-dimethylmorpholine-4-carbonyl]-5,6-dihydrocyclopenta[c]pyrazol-1(4H)-yl}-1-[4-(2-methylphenoxy)piperidin-1-yl]ethan-1-one] came in with an EC50 of 3.03 nM.
Turning to `Cc1ccccc1OC1CCN(C(=O)Cn2nc(C(=O)N3CC[C@H](O)[C@H](F)C3)c3c2C[C@H]2C[C@@H]32)CC1` [Example 16, 2-((3bR,4aR)-3-((3R,4S)-3-fluoro-4-hydroxypiperidine-1-carbonyl)-3b,4,4a,5-tetrahydro-1H-cyclopropa[3,4]cyclopenta[1,2-c]pyrazol-1-yl)-1-(4-(o-tolyloxy)piperidin-1-yl)ethanone], the EC50 is 1.07 nM.
In turn, `Cc1ccccc1OC1CCN(C(=O)Cn2nc(C(=O)N3CC[C@H](O)C[C@@H]3C)c3c2CCCC3)CC1` [Example 17, 2-(3-((2S,4S)-4-hydroxy-2-methylpiperidine-1-carbonyl)-4,5,6,7-tetrahydro-1H-indazol-1-yl)-1-(4-(o-tolyloxy)piperidin-1-yl)ethanone] had an EC50 of 1.11 nM.
For the compound `Cc1cc(F)ccc1OC1CCN(C(=O)Cn2nc(C(=O)N3CCN(C(=O)CO)CC3)c3c2CCC3)CC1` [Example 88, 1-[4-(4-fluoro-2-methyl-phenoxy)-1-piperidyl]-2-[3-[4-(2-hydroxyacetyl)piperazine-1-carbonyl]-5,6-dihydro-4H-cyclopenta[c]pyrazol-1-yl]ethanone], the EC50 came out at 55.2 nM.
Under `Cc1cc(F)ccc1OC1CCN(C(=O)Cn2nc(C(=O)N3CCO[C@H](CO)C3)c3c2CCCCC3)CC1` [Example 85, 1-[4-(4-fluoro-2-methyl-phenoxy)-1-piperidyl]-2-[3-[(2S)-2-(hydroxymethyl)morpholine-4-carbonyl]-5,6,7,8-tetrahydro-4H-cyclohepta[c]pyrazol-1-yl]ethanone] stands 35.7 nM; under `C[C@@H]1CN(C(=O)c2nn(CC(=O)N3CCC(Oc4ccc(C#N)cc4)CC3)c3c2CCC3)C[C@H](C)O1` [Example 112, 4-{[1-({3-[(2R,6S)-2,6-dimethylmorpholine-4-carbonyl]-5,6-dihydrocyclopenta[c]pyrazol-1(4H)-yl}acetyl)piperidin-4-yl]oxy}benzonitrile], 180 nM.
The result for `Cc1ccccc1OC1CCN(C(=O)Cn2nc(C(=O)N3CCC(O)CC3(C)C)c3c2CCCC3)CC1` (stereo not drawn) [Example 25, 2-(3-(4-hydroxy-2,2-dimethylpiperidine-1-carbonyl)-4,5,6,7-tetrahydro-1H-indazol-1-yl)-1-(4-(o-tolyloxy)piperidin-1-yl)ethanone] reads 2.1 nM.
Turning to `Cc1ccccc1OC1CCN(C(=O)Cn2nc(C(=O)N3CCC(F)(CO)CC3)c3c2CCC3)CC1` [Example 30, 2-(3-(4-fluoro-4-(hydroxymethyl)piperidine-1-carbonyl)-5,6-dihydrocyclopenta[c]pyrazol-1(4H)-yl)-1-(4-(o-tolyloxy)piperidin-1-yl)ethanone], the EC50 turned out to be 2.81 nM.
The result for `Cc1ccccc1OC1CCN(C(=O)Cn2nc(C(=O)N3CCC(O)(CF)CC3)c3c2CCC3)CC1` [Example 35, 2-(3-(4-(fluoromethyl)-4-hydroxypiperidine-1-carbonyl)-5,6-dihydrocyclopenta[c]pyrazol-1(4H)-yl)-1-(4-(o-tolyloxy)piperidin-1-yl)ethanone] reads 4.52 nM; that for `Cc1cccc(C)c1OC1CCN(C(=O)Cn2nc(C(=O)N3C[C@@H](C)O[C@@H](C)C3)c3c2CCC3)CC1` [Example 147, 2-{3-[(2R,6S)-2,6-dimethylmorpholine-4-carbonyl]-5,6-dihydrocyclopenta[c]pyrazol-1(4H)-yl}-1-[4-(2,6-dimethylphenoxy)piperidin-1-yl]ethan-1-one], 23.8 nM; that for `C[C@@H]1CN(C(=O)c2nn(CC(=O)N3CCC(OC4CCCC4)CC3)c3c2CCC3)C[C@H](C)O1` [Example 166, 1-(4-(Cyclopentyloxy)piperidin-1-yl)-2-(3-((2S,6R)-2,6-dimethylmorpholine-4-carbonyl)-5,6-dihydrocyclopenta[c]pyrazol-1(4H)-yl)ethan-1-one], 175 nM.
The compound `C[C@@H]1CN(C(=O)c2nn(CC(=O)N3CCC(Oc4ccc(F)c(F)c4F)CC3)c3c2CCC3)C[C@H](C)O1` [Example 155, 2-{3-[(2R,6S)-2,6-dimethylmorpholine-4-carbonyl]-5,6-dihydrocyclopenta[c]pyrazol-1(4H)-yl}-1-[4-(2,3,4-trifluorophenoxy)piperidin-1-yl]ethan-1-one] had an EC50 of 43.9 nM.
Compound `CCOC(=O)c1nn(CC(=O)N2CC[C@@H](Oc3ncccc3F)C[C@H]2C)c2c1[C@@H]1C[C@@H]1C2` [Example 71, (3bR,4aR)-ethyl 1-(2-((2R,4R)-4-((3-fluoropyridin-2-yl)oxy)-2-methylpiperidin-1-yl)-2-oxoethyl)-3b,4,4a,5-tetrahydro-1H-cyclopropa[3,4]cyclopenta[1,2-c]pyrazole-3-carboxylate] returned an EC50 of 192 nM.
`C[C@@H]1CN(C(=O)c2nn(CC(=O)N3CCC(Oc4ccc(F)cc4Br)CC3)c3c2CCC3)C[C@H](C)O1` [Example 137, 1-[4-(2-bromo-4-fluorophenoxy)piperidin-1-yl]-2-{3-[(2R,6S)-2,6-dimethylmorpholine-4-carbonyl]-5,6-dihydrocyclopenta[c]pyrazol-1(4H)-yl}ethan-1-one]: the EC50 was determined as 8.33 nM.
Regarding `Cc1ccccc1OC1CCN(C(=O)Cn2nc(C(=O)N3CC[C@H](O)[C@@H](F)C3)c3c2CCC3)CC1` [Example 34, 2-(3-((3S,4S)-3-fluoro-4-hydroxypiperidine-1-carbonyl)-5,6-dihydrocyclopenta[c]pyrazol-1(4H)-yl)-1-(4-(o-tolyloxy)piperidin-1-yl)ethanone], the EC50 was 3.95 nM.
As to `C[C@@H]1CN(C(=O)c2nn(CC(=O)N3CCC(OCc4c(F)cccc4F)C3)c3c2CCC3)C[C@H](C)O1` (stereo partly drawn) [Example 124, 1-{3-[(2,6-difluorophenyl)methoxy]pyrrolidin-1-yl}-2-{3-[(2R,6S)-2,6-dimethylmorpholine-4-carbonyl]-5,6-dihydrocyclopenta[c]pyrazol-1(4H)-yl}ethan-1-one], the midpoint of the response, the EC50, lay at 398 nM.
In the case of `O=C(CO)N1CCN(C(=O)c2nn(CC(=O)N3CCC(Oc4ccccc4Cl)C4CC43)c3c2[C@@H]2C[C@@H]2C3)CC1` (single isomer, unassigned) [Example 168], the EC50 worked out at 4.63 nM.
As to `CCOC(=O)c1nn(CC(=O)N2CCC(Oc3cccc(Cl)c3)CC2)c2c1CCCC2` [Example 51, ethyl 1-(2-(4-(3-chlorophenoxy)piperidin-1-yl)-2-oxoethyl)-4,5,6,7-tetrahydro-1H-indazole-3-carboxylate], the EC50 was 299 nM.
